For assay [1], the target named is T1, human recombinant Monoacylglycerol Lipase (Homo sapiens, UniProt Q99685). Briefly: MAGL inactivation (kinact/KI from enzyme progress curves, T=0 min protocol). Particulars: from plot of Kobs vs. compound concentration, geometric mean of 2-5 determinations (b: ≥6).
In assay [2] the target is T1, human recombinant Monoacylglycerol Lipase. Briefly: MAGL enzymatic assay (IC50; 7-HCA substrate added at T=0 min or T=30 min). It counts as biochemical.

Amino acid sequences for entries named in this document (tags omitted).
UniProt Q99685, whole entry: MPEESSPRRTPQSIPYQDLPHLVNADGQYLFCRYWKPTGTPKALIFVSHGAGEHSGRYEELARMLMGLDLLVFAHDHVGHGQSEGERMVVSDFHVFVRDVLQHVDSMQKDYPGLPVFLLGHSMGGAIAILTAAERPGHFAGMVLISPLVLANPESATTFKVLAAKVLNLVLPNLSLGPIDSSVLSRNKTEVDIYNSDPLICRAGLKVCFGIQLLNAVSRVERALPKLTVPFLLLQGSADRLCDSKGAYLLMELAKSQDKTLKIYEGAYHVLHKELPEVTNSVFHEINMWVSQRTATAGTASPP

The IC50 is the concentration that inhibits the measured activity by half. Regarding `CN(C(=O)C(C)(C)C)[C@H]1COC2(CCN(C(=O)O[C@H](CO)C(F)(F)F)CC2)C1` [Example 7, (2R)-1,1,1-Trifluoro-3-hydroxypropan-2-yl (3R)-3-[(2,2-dimethylpropanoyl)(methyl)amino]-1-oxa-8-azaspiro[4.5]decane-8-carboxylate], the “MAGL kinact/KI” value in assay [1] is recorded as 19700 1/s per M. Also, the IC50 worked out at 37 nM in assay [2] (MAGL (T = 0 min) IC50) and 3 nM in assay [2] (MAGL (T = 30 min) IC50).
Regarding `O=C(O[C@H](CO)C(F)(F)F)N1CCC2(CC1)CC(Oc1ccc(C(F)F)nc1)C2` [Example 19, (2R)-1,1,1-Trifluoro-3-hydroxypropan-2-yl 2-{[6-(difluoromethyl)pyridin-3-yl]oxy}-7-azaspiro[3.5]nonane-7-carboxylate], the “MAGL kinact/KI” value in assay [1] was 78900 1/s per M.

The values above are taken from US10626125B2, “1,1,1-trifluoro-3-hydroxypropan-2-yl carbamate derivatives as MAGL inhibitors” (PFIZER INC., priority 2017, dated 2020).
